Patent EP4603105A1, “PHARMACEUTICAL COMPOSITION CONTAINING CYCLIC COMPOUND HAVING SELECTIVE KRAS INHIBITORY EFFECT AGAINST HRAS AND NRAS” (CHUGAI SEIYAKU KABUSHIKI KAISHA, priority 2022, dated 2024)

Protein sequences, listed by entry. Tags and fused reporters are not part of them.
UniProt P01112, whole entry: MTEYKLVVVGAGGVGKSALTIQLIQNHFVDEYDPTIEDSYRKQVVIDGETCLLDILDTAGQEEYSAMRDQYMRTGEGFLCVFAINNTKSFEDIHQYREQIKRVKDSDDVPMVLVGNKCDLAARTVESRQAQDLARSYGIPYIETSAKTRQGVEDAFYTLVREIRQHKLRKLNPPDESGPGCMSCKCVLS

Target: HRAS wild-type protein (Homo sapiens, UniProt P01112)
Experiment: Binding to HRAS by surface plasmon resonance (SPR), KD and KD ratio to KRAS
[1] = ratio of KD with respect to HRAS wild-type protein to KD with respect to KRAS
[2] = ratio of KD for HRAS wild-type protein to KD for KRAS

SMILES | HRAS /KRAS [1] | HRAS /KRAS [2]
CCO[C@@H]1C[C@H]2C(=O)NC3(CCC3)C(=O)N(C)[C@@H](C3CCCC3)C(=O)N(C)[C@H](C(=O)N3CCOCC3)CC(=O)N(C)[C@@H](CC3CC3)C(=O)N[C@@H]([C@@H](C)CC)C(=O)N(C)CC(=O)N(C)[C@H]3C/C=C\CCN(C3=O)[C@@H](Cc3ccc(C(F)(F)F)cc3)C(=O)N(C)CC(=O)N[C@@H](CCc3cc(F)c(C(F)(F)F)c(F)c3)C(=O)N2C1 | A (a compound having 10 or more and less than 20 is denoted as A) | 
CCO[C@@H]1C[C@H]2C(=O)NC3(CCC3)C(=O)N(C)[C@@H](C3CCCC3)C(=O)N(C)[C@H](C(=O)N(C)C)CC(=O)N(C)[C@@H](CC)C(=O)N[C@@H](C(C)C)C(=O)N(C)CC(=O)N(C)[C@H]3C/C=C\CCN(C3=O)[C@@H](Cc3ccc(C(F)(F)F)cc3)C(=O)N(C)CC(=O)N[C@@H](CCc3cc(F)c(C(F)(F)F)c(F)c3)C(=O)N2C1 | B (a compound having 3 or more and less than 10 is denoted as B) | 
CCCOC[C@H]1C(=O)N[C@@H]([C@@H](C)CC)C(=O)N(C)CC(=O)N(C)[C@H]2C/C=C\CCN(C2=O)[C@@H](Cc2ccc(C)cc2)C(=O)N(C)CC(=O)N[C@@H](CCc2ccc(C(F)(F)F)c(OC)c2)C(=O)N2C[C@@H](C)C[C@H]2C(=O)NC2(CC(C)(C)C2)C(=O)N(C)[C@@H](C2CCCC2)C(=O)N(C)[C@H](C(=O)N(C)C)CC(=O)N1C |  | B (a compound having 3 or more and less than 10 is denoted as B)
CC[C@H](C)[C@@H]1NC(=O)[C@H](CC2CC2)N(C)C(=O)C[C@@H](C(=O)N(C)C)N(C)C(=O)[C@H](C2CCCC2)N(C)C(=O)C2(CCCC2)NC(=O)[C@@H]2CCCN2C(=O)[C@H](CCc2ccc(C(F)(F)F)c(Cl)c2)NC(=O)CN(C)C(=O)[C@H](Cc2ccc(C(F)(F)F)cc2)N2C[C@H](C)CC[C@@H](C2=O)N(C)C(=O)CN(C)C1=O | B (a compound having 3 or more and less than 10 is denoted as B) | 
CCO[C@@H]1C[C@H]2C(=O)NC3(CCC3)C(=O)N(C)[C@@H](C3CCCC3)C(=O)N(C)[C@H](C(=O)N(C)C)CC(=O)N(C)[C@@H](CSC)C(=O)N[C@@H]([C@@H](C)CC)C(=O)N(C)CC(=O)N(C)[C@H]3C/C=C\CCN(C3=O)[C@@H](CC3CCC(F)(F)CC3)C(=O)N(C)CC(=O)N[C@@H](CCc3cc(F)c(C(F)(F)F)c(F)c3)C(=O)N2C1 | A (a compound having 10 or more and less than 20 is denoted as A) | 
CC[C@H](C)[C@@H]1NC(=O)[C@H](COC)N(C)C(=O)C[C@@H](C(=O)N(CC)CC)N(C)C(=O)[C@H](C2CCCC2)N(C)C(=O)C2(CC(C)(C)C2)NC(=O)[C@@H]2C[C@H](C)CN2C(=O)[C@H](CCc2ccc(C(F)(F)F)c(Cl)c2)NC(=O)CN(C)C(=O)[C@H](Cc2ccc(C)cc2)N2CC/C=C\C[C@@H](C2=O)N(C)C(=O)CN(C)C1=O |  | A (a compound having 10 or more and less than 20 is denoted as A)
CCO[C@@H]1C[C@H]2C(=O)NC3(CCOCC3)C(=O)N(C)[C@@H](C3CCCC3)C(=O)N(C)[C@H](C(=O)N(C)C)CC(=O)N(C)[C@@H](CC)C(=O)N[C@@H]([C@@H](C)CC)C(=O)N(C)CC(=O)N(C)[C@H]3C/C=C\CCN(C3=O)[C@@H](Cc3ccc(C(F)(F)F)cc3)C(=O)N(C)CC(=O)N[C@@H](CCc3cc(F)c(C(F)(F)F)c(F)c3)C(=O)N2C1 | A (a compound having 10 or more and less than 20 is denoted as A) | 
CC[C@H](C)[C@@H]1NC(=O)[C@H](CC(C)C)N(C)C(=O)C[C@@H](C(=O)N2CCOCC2)N(C)C(=O)[C@H](C2CCCC2)N(C)C(=O)C2(CCC2)NC(=O)[C@@H]2CCCN2C(=O)[C@H](CCc2ccc(C(F)(F)F)c(Cl)c2)NC(=O)CN(C)C(=O)[C@H](Cc2ccc(C(F)(F)F)cc2)N2C[C@H](C)CC[C@@H](C2=O)N(C)C(=O)[C@@H]2CCN2C1=O | B (a compound having 3 or more and less than 10 is denoted as B) | 
CCC[C@H]1C(=O)N[C@@H]([C@@H](C)CC)C(=O)N2CCC[C@H]2C(=O)N(C)[C@H]2C/C=C\CCN(C2=O)[C@@H](CC2CCC(F)(F)CC2)C(=O)N(C)CC(=O)N[C@@H](CCc2ccc(C(F)(F)F)c(OC)c2)C(=O)N2C[C@H](OCC)C[C@H]2C(=O)N(C)C2(CCC2)C(=O)N(C)[C@@H](C2CCCC2)C(=O)N(C)[C@H](C(=O)N(C)C)CC(=O)N1C |  | A (a compound having 10 or more and less than 20 is denoted as A)
CC[C@H](C)[C@@H]1NC(=O)[C@H](CC)N(C)C(=O)C[C@@H](C(=O)N(C)C)N(C)C(=O)[C@H](C2CCCC2)N(C)C(=O)C2(CCC2)NC(=O)[C@H](COC)N(C)C(=O)[C@H](CCc2cc(F)c(C(F)(F)F)c(F)c2)NC(=O)CN(C)C(=O)[C@H](Cc2ccc(C(F)(F)F)cc2)N2CC/C=C\C[C@@H](C2=O)N(C)C(=O)CN(C)C1=O | B (a compound having 3 or more and less than 10 is denoted as B) | 
CC[C@H](C)[C@@H]1NC(=O)[C@H](COC)N(C)C(=O)C[C@@H](C(=O)N(C)C)N(C)C(=O)[C@H](C2CCCC2)N(C)C(=O)C2(CC(C)(C)C2)NC(=O)[C@@H]2C[C@H](C)CN2C(=O)[C@H](CCc2ccc(C(F)(F)F)c(OC)c2)NC(=O)CN(C)C(=O)[C@H](Cc2ccc(C)cc2)N2CC/C=C\C[C@@H](C2=O)N(C)C(=O)CN(C)C1=O |  | B (a compound having 3 or more and less than 10 is denoted as B)
CCO[C@@H]1C[C@H]2C(=O)NC3(CCC3)C(=O)N(C)[C@@H](C(CC)CC)C(=O)N(C)[C@H](C(=O)N(C)C)CC(=O)N(C)[C@@H](COC)C(=O)N[C@@H]([C@@H](C)CC)C(=O)N(C)CC(=O)N(C)[C@H]3C/C=C\CCN(C3=O)[C@@H](Cc3ccc(C(F)(F)F)cc3)C(=O)N(C)CC(=O)N[C@@H](CCc3ccc4sccc4c3)C(=O)N2C1 | A (a compound having 10 or more and less than 20 is denoted as A) | 
CCC(C)C1NC(=O)C(CC2CCC2)N(C)C(=O)CC(C(=O)N2CCOCC2)N(C)C(=O)C(C2CCCC2)N(C)C(=O)C2(CCC2)NC(=O)C2CCCN2C(=O)C(CCc2ccc(C(F)(F)F)c(Cl)c2)NC(=O)CN(C)C(=O)C(Cc2ccc(C(F)(F)F)cc2)N2CC(C)CCC(C2=O)N(C)C(=O)C2CCN2C1=O (stereo not shown) | B (a compound having 3 or more and less than 10 is denoted as B) | 
CCCCN1CC(=O)NC2(CCC2)C(=O)N(C)[C@@H](C2CCCC2)C(=O)N(C)[C@H](C(=O)N(C)C)CC(=O)N(C)[C@@H](CC)C(=O)N[C@@H]([C@@H](C)CC)C(=O)N(C)CC(=O)N(C)[C@H]2C/C=C\CCN(C2=O)[C@@H](Cc2ccc(C(F)(F)F)cc2)C(=O)N(C)CC(=O)N[C@@H](CCc2cc(F)c(C(F)(F)F)c(F)c2)C1=O | A (a compound having 10 or more and less than 20 is denoted as A) | 
CCO[C@@H]1C[C@H]2C(=O)NC3(CCC3)C(=O)N(C)[C@@H](C3CCCC3)C(=O)N(C)[C@H](C(=O)N(C)C)CC(=O)N(C)[C@@H](CC)C(=O)N[C@@H]([C@@H](C)CC)C(=O)N(C)CC(=O)N(C)[C@H]3C/C=C\CCN(C3=O)[C@@H](Cc3ccc(C(F)(F)F)cc3)C(=O)N(C)CC(=O)N[C@@H](CCc3ccc4sccc4c3)C(=O)N2C1 | A (a compound having 10 or more and less than 20 is denoted as A) | 
CCO[C@@H]1C[C@H]2C(=O)NC3(CCCC3)C(=O)N(C)[C@@H](C(CC)CC)C(=O)N(C)[C@H](C(=O)N3CCCC3)CC(=O)N(C)[C@@H](C)C(=O)N[C@@H]([C@@H](C)CC)C(=O)N(C)CC(=O)N(C)[C@H]3C/C=C\CCN(C3=O)[C@@H](CC3CCC(F)(F)CC3)C(=O)N(C)CC(=O)N[C@@H](CCc3cc(F)c(C(F)(F)F)c(F)c3)C(=O)N2C1 | A (a compound having 10 or more and less than 20 is denoted as A) | 
CCO[C@@H]1C[C@H]2C(=O)NC3(CC(C)(C)C3)C(=O)N(C)[C@@H](C3CCCC3)C(=O)N(C)[C@H](C(=O)N(C)CC)CC(=O)N(C)[C@@H](COC)C(=O)N[C@@H]([C@@H](C)CC)C(=O)N(C)CC(=O)N(C)[C@H]3C/C=C\CCN(C3=O)[C@@H](Cc3ccc(C)cc3)C(=O)N(C)CC(=O)N[C@@H](CCc3ccc(C(F)(F)F)c(OC)c3)C(=O)N2C1 |  | A (a compound having 10 or more and less than 20 is denoted as A)
C=CC[C@H]1C(=O)N[C@@H]([C@@H](C)CC)C(=O)N(C)CC(=O)N(C)[C@H]2C/C=C\CCN(C2=O)[C@@H](CC2CCCCC2)C(=O)N(C)CC(=O)N[C@@H](CCc2cc(F)c(C(F)(F)F)c(F)c2)C(=O)N2C[C@H](OCC)C[C@H]2C(=O)NC2(CCC2)C(=O)N(C)[C@@H](C2CCCC2)C(=O)N(C)[C@H](C(=O)N(C)C)CC(=O)N1C | A (a compound having 10 or more and less than 20 is denoted as A) | 
CCC[C@H]1C(=O)N[C@@H]([C@@H](C)CC)C(=O)N(C)CC(=O)N(C)[C@H]2C/C=C\CCN(C2=O)[C@@H](Cc2ccc(C(F)(F)F)cc2)C(=O)N(C)CC(=O)N[C@@H](CCc2ccc(Cl)c(Cl)c2)C(=O)N2C[C@H](OCC)C[C@H]2C(=O)NC2(CCC2)C(=O)N(C)[C@@H](C2CCCC2)C(=O)N(C)[C@H](C(=O)N(C)C)CC(=O)N1C | A (a compound having 10 or more and less than 20 is denoted as A) | 
CCCOC[C@H]1C(=O)N[C@@H]([C@@H](C)OCC)C(=O)N2CCC[C@H]2C(=O)N(C)[C@H]2C/C=C\CCN(C2=O)[C@@H](Cc2ccc(C)cc2)C(=O)N(C)CC(=O)N[C@@H](CCc2ccc(C(F)(F)F)c(OC)c2)C(=O)N2C[C@@H](C)C[C@H]2C(=O)NC2(CC(C)(C)C2)C(=O)N(C)[C@@H](C2CCCC2)C(=O)N(C)[C@H](C(=O)N(C)CC)CC(=O)N1C |  | A (a compound having 10 or more and less than 20 is denoted as A)
CCO[C@@H]1C[C@H]2C(=O)NC3(CCC3)C(=O)N(C)[C@@H](C3CCCC3)C(=O)N(C)[C@H](C(=O)N(C)C)CC(=O)N(C)[C@@H](CC(C)C)C(=O)N[C@@H]([C@@H](C)CC)C(=O)N(C)CC(=O)N(C)[C@H]3C/C=C\CCN(C3=O)[C@@H](Cc3ccc(F)cc3)C(=O)N(C)CC(=O)N[C@@H](CCc3cc(F)c(Cl)c(F)c3)C(=O)N2C1 | B (a compound having 3 or more and less than 10 is denoted as B) | 
CCOC1CC2C(=O)NC3(CCC3)C(=O)N(C)C(C3CCCC3)C(=O)N(C)C(C(=O)N(C)C)CC(=O)N(C)C(Cc3ccccc3)C(=O)NC(C(C)CC)C(=O)N(C)CC(=O)N(C)C3CCCCCN(C3=O)C(Cc3ccc(F)cc3)C(=O)N(C)CC(=O)NC(CCc3cc(F)c(C(F)(F)F)c(F)c3)C(=O)N2C1 (stereo not shown) | B (a compound having 3 or more and less than 10 is denoted as B) | 
